Values of other authors in patent US9422302B2 (priority 2013, dated 2016).

By UniProt entry, the sequences of proteins in these tests, tags left out. Where a name states a change or a piece, a line headed by the entry shows the natural chain unless it says otherwise.
UniProt P33533, whole entry, looked up: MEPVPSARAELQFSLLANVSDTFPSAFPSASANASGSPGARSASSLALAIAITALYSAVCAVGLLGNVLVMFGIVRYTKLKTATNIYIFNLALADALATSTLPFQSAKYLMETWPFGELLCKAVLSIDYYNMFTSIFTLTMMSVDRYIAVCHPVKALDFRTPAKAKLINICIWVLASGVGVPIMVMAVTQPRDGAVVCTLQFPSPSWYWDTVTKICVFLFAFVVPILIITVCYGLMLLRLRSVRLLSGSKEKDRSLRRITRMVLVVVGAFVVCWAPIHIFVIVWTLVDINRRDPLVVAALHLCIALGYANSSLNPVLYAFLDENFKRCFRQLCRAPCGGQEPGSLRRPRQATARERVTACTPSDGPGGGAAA

Target: δ receptor (Rattus norvegicus, UniProt P33533)
Conditions: relative to BW373U86 = 1.00, buprenorphine and naltrexone designated 0 as classified antagonists; cited from earlier work

Row | Molecule | Relative % Emax Experimental
1 | CO[C@]12CC[C@@]3(C[C@@H]1C(C)(C)O)[C@H]1Cc4ccc(O)c5c4[C@@]3(CCN1CC1CC1)[C@H]2O5 | 0.08
2 | (±)-4-((α-R*)-α-((2S*,5R*)-4-Allyl-2,5-dimethyl-1-piperazinyl)-3-hydroxybenzyl)-N,N-diethyl-benzamide | 1.00
